## Antibody variant affinities, Ab-14 light chain, assay B

Reference: Li et al. 2023, doi:10.1038/s41467-023-39022-2. File: FLAb, binding data.

Target peptide (SARS-CoV-2 spike, HR2 region): PDVDLGDISGINAS

The variants keep the heavy chain, the linker and the frameworks of Ab-14 (scFv order VH, the linker GGGGSGGGGSGGGGS, VL).
VH: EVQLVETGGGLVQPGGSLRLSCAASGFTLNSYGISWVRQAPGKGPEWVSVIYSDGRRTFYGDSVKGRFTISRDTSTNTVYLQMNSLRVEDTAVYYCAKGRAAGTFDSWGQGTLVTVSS
VL: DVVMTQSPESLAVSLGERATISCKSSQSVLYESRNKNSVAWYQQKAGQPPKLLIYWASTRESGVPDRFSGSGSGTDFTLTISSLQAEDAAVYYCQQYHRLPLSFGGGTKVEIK

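The parent was found by panning a naive human phage display library on the peptide. The variants were designed computationally from a first round of random CDR variants and then made and measured. Their group label is 14L_En_Gen (En: ensemble of fine-tuned language models; Gen: genetic algorithm). Affinity was read by AlphaSeq, a pooled yeast mating assay with surface-displayed partners. Pairs that bind mate more often; barcode pairs of the diploids are counted by sequencing. Each replicate has its own calibration line, from reference interactions of the BCL2 family. The assay was run in six technical replicates.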

The parent's light chain CDRs are KSSQSVLYESRNKNSVA, WASTRES, QQYHRLPLS; each variant's own CDRs replace them letter for letter. Scale: log10 of Kd in nM, estimated from mating counts; low values are strong binders. Where no diploid with the target was found in that replicate, the entry reads "nd": below detection, most likely a poor binder, though not proof of it. The range of this assay differs from that of the first round, and the authors advise against merging the two.

CDR-L1	CDR-L2	CDR-L3	log10 Kd (nM) by replicate	signal with controls
KIGATLNQMMHLKNNVA	DLVTREN	QQYHRLPLS	1.15 1.61 0.96 1.01 1.18 1.56	0/18
HMSALTMMGMRQRNSVA	QMTTREN	QQYDRLPLV	1.06 0.92 0.98 1.27 0.94 0.87	1/18 (2.90)
KIGMTLNTLMHTKNNVA	DLVTREH	QQYHRLPLS	-0.20 -0.39 0.09 0.47 -0.46 -0.29	0/18
MMGQVTGMGQRHRNNVA	QTSTREE	QQYDRLPLS	-0.14 -0.04 0.11 -0.16 -0.01 0.01	0/18
KISMLINTTFEVSNNVA	EMVTREK	QQYNRLPLS	2.85 2.97 2.76 2.32 1.98 2.04	0/18
HLGLATMLESSVRNSVA	NNSTREE	QQYDRLPLS	0.50 0.09 0.32 0.03 -0.18 0.26	1/18 (3.08)
MISQMYNMGQFAINSVA	QASERNT	QQYDRLPLT	1.02 2.64 1.31 0.85 1.68 1.74	0/18
KVSEFMRGLMQRKDSIA	DNVTRNN	QQYDRLPLS	2.61 nd 2.59 nd nd nd	0/18
KLVQFMNRGTHHTSNIA	DAALREE	QQYYRLPLA	0.74 0.76 0.70 0.51 0.84 1.06	1/18 (2.94)
MISQLMNLGQFAINSVA	QATIRNH	QQYDRLPLA	nd nd nd nd nd 1.85	0/18
MISQVMNMLTHTGNNVA	DLQEREE	QQYFRLPLS	nd 3.78 1.32 1.88 0.52 2.17	0/18
TIGQMLMQGIRNRSNVA	EVSQRLN	QQYDRLPLM	2.11 2.20 1.18 1.10 1.79 1.69	1/18 (2.58)
KLSMITGHMSVEKNNVA	EMETREN	QQYDRLPLS	1.58 1.62 0.98 1.96 2.69 1.18	0/18
KIGMTLNQLMHQKQNVA	DLVMREN	QQYHRLPLS	0.27 0.62 0.23 0.13 -0.13 0.00	2/18 (2.78)
HITYGMYVAGRHSHSIA	QAETREK	QQYDRLPLS	nd 1.28 1.34 1.96 1.40 1.32	1/18 (1.61)
HISMITLQGMRARNSVA	QMTTREN	QQYDRLPLA	1.28 1.55 0.71 1.64 1.35 0.78	0/18
TISEMLHVPGKNRNSVA	ELSTRSN	QQYDRLPLS	0.82 0.18 0.50 0.29 1.72 0.77	0/18
IVSQLMLWGYHAKNSIA	EAQTRVN	QQYDRLPLF	1.99 2.28 1.97 2.30 2.87 1.49	2/18 (1.95)
TISQMTSLFSMSINNVA	EVSTREE	QQYDRLPLA	0.79 1.04 1.04 1.00 0.74 0.88	0/18
TISQVMNTLTREGNNVA	DLAERFD	QQYFRLPLS	0.60 0.55 0.60 0.42 0.32 0.56	2/18 (2.55)
TISQMTSWMSNLKNNVA	EVSTREK	QQYDRLPLS	1.65 1.31 0.85 0.93 1.25 1.73	0/18
MVTQMAMTGMKNKRSVA	NAETRES	QQYHRLPLI	nd 1.35 1.49 1.02 2.02 2.40	0/18
MVYQAVMMGGVARNSIA	NAQTRDD	QQYHRLPLI	1.03 1.17 0.85 0.82 1.31 1.11	0/18
IVSQLMLWGYHAKNSIA	EASTRFN	QQYDRLPLF	nd nd nd 2.02 nd nd	0/18
MISQIYNMGQFAINSVA	QASQRNS	QQYDRLPLM	1.17 1.14 1.12 1.16 1.09 1.57	2/18 (3.45)
KFSQMSNMFSVSMNAVA	EMSTRTD	QQYNRLPLA	1.25 0.92 1.08 1.22 0.88 1.08	1/18 (3.61)
TISSVMNHMTRIDNNVA	NQDMREK	QQYDRLPLS	1.81 1.86 1.34 1.78 1.73 1.82	0/18
HIGLATMSEETVRNSVA	NNSTREE	QQYDRLPLS	2.04 2.95 2.28 nd 2.19 2.32	0/18
HMSMLTLGGMRTRNSVA	QMTTREN	QQYDRLPLS	1.71 2.87 2.18 1.45 1.77 1.63	0/18
TISQMSTLFSQTINNVA	EVSTREQ	QQYDRLPLM	0.83 0.50 1.05 0.38 0.73 0.83	2/18 (2.73)
TISQMTSLFSQSINNVA	EVSMREP	QQYDRLPLT	2.39 3.18 nd 2.82 1.78 1.42	0/18
KISMTTEMELKNRNSVA	ELVTREN	QQYNRLPLS	1.79 0.60 0.46 0.39 0.45 0.56	1/18 (2.27)
KLSMITGHLQQSKNNVA	EMVTREN	QQYNRLPLA	0.01 -0.07 0.52 0.02 -0.10 0.47	2/18 (2.09)
MLSEVLHMLGVQKNAIA	DLVLRAN	QQYHRLPLA	nd nd nd nd nd nd	0/18
TISQITSLFTQNINNVA	EVSTRLN	QQYDRLPLA	0.49 1.00 0.72 0.75 0.31 1.13	0/18
MIGEMLMQGQYIRNSVA	QANIRAQ	QHYNRLPLE	nd nd nd nd nd nd	0/18
MISQLMNTGQFAINSVA	QASERSN	QQYDRLPLI	2.39 2.26 1.74 1.64 2.01 2.27	1/18 (2.93)

Of ten entries with the parent sequence, four were seen in most replicates (averages 0.34 to 2.37), three in one and three in none, so single entries are noisy. Background: pairings of all light chain designs with three empty control strains gave a value in 4% of cases (median 2.64, 5th percentile 1.59). Values in that range, when seen in few replicates, are hard to tell from nonspecific mating. The control count says in how many pairings with the empty strains this scFv gave a signal, with their mean in brackets. The authors' rule: three or more of the six replicates give a measured affinity, fewer mean a poor binder.